Source: patent US20240108744A1, “AURISTATIN DERIVATIVES AND CONJUGATES THEREOF” (priority 2022, published 2024)

Columns and labels:
NCI-N87 = test: In vitro cytotoxicity (CCK-8) in NCI-N87 cells; type: cell-based, human; details: NCI-N87 cell line, 120 hours incubation
Procedure: (§1) Cytotoxic potencies of the compounds are assessed in flat-bottomed 96-well cell culture plates (Corning Costar) using cell counting Kit-8 (CCK-8) assay (Shanghai Life Lab Biotech Co., Ltd.). Briefly, human tumor cells (1,000-10,000 cells/well, depending on the cell line), in the appropriate culture medium are incubated, with the compounds, or with conjugates in the presence or absence of an excess of the corresponding unconjugated antibodies, for 120 hours, at 37° C., 5% CO2.
(§2) Dispensed 175 μL cell suspension in 96-well plate at 1500 cells per well and incubate for 24 hours in a humidified incubator (37° C., 5% CO2). Added 25 μL various concentrations of compound as a 5× solution into the cell culture medium (Fetal bovine serum, Invitrogen) in the plate and incubated for 120 hours in the incubator. Thawed CCK-8 on the bench top or in a 37° C. water bath, added 10 μL of CCK-8 to each well of the incubated plate (be careful not introducing air bubbles into the wells since they would interfere with the O. D. reading) and then further incubated for 1-4 hours in the incubator. Measured the absorbance at 450 nm using a SpectraMax i3x Microplate Reader and calculated the cell inhibition rate. The IC50 curves were generated along with the IC50 values by using GraphPad Prism software.

NCI-N87 tumor cells = test: In vivo efficacy of the ADCs in NCI-N87 CDX model; design: species or system mouse
JIMT-1 tumor cells = test: In vivo efficacy of the ADCs in JIMT-1 CDX model; design: species or system mouse; details: for TGI (%) (day 28): Scid-Beige mice
BR 474 = test: In vitro cytotoxicity (CCK-8) in BR 474 cells; type: cell-based, human; details: BR 474 cell line, 120 hours incubation
Procedure: as §1, §2

[1] = 0.3 mg/Kg single i.v., day 28 (Table 8)
[2] = 1 mg/Kg single i.v., day 28 (Table 8)
[3] = 1 mg/Kg single i.v., day 28 (Table 9)
[4] = 3 mg/Kg single i.v., day 28 (Table 9)

Substance	IC50 (NCI-N87) [nM]	Comments (NCI-N87 tumor cells; 0.3 mg/Kg single i.v., day 30 (Table 6))	Comments (NCI-N87 tumor cells; 1 mg/Kg single i.v., day 30 (Table 6))	antitumor activity (NCI-N87 tumor cells; 0.3, 1 and/or 3 mg/kg, FIG. 1)	TGI (%) (day 30) (NCI-N87 tumor cells; Balb/c-Nude mice, 0.3 mg/Kg single i.v., day 30 (Table 6))	Comments (JIMT-1 tumor cells; [1])	Comments (JIMT-1 tumor cells; [2])	antitumor activity (JIMT-1 tumor cells; 0.3, 1 and/or 3 mg/kg, FIG. 3)	TGI (%) (day 28) (JIMT-1 tumor cells; [1])	TGI (%) (day 28) (JIMT-1 tumor cells; [2])	IC50 (BR 474) [nM]	Comments (NCI-N87 tumor cells; 1 mg/Kg single i.v., day 44 (Table 7))	Comments (NCI-N87 tumor cells; 3 mg/Kg single i.v., day 44 (Table 7))	antitumor activity (NCI-N87 tumor cells; 1 & 3 mg/kg, FIG. 2)	TGI (%) (day 44) (NCI-N87 tumor cells; Balb/c-Nude mice, 1 mg/Kg single i.v., day 44 (Table 7))	Comments (JIMT-1 tumor cells; [3])	Comments (JIMT-1 tumor cells; [4])	antitumor activity (JIMT-1 tumor cells; 1 & 3 mg/kg, FIG. 4)	TGI (%) (day 28) (JIMT-1 tumor cells; [3])	TGI (%) (day 28) (JIMT-1 tumor cells; [4])
trastuzumab meditecan (DAR8) [reference compound]	2.5	inactive	active	dose-dependent antitumor activity	37.1	inactive	active	dose-dependent antitumor activity	20.8	56.8	> 1000	–	–	–	–	–	–	–	–	–
trastuzumab-MB3-DAR4 [reference compound]	–	–	–	–	–	–	–	–	–	–	–	active	highly active	dose-dependent antitumor activity	68.6	inactive	inactive	dose-dependent antitumor activity	19.4	30.0
trastuzumab-vedotin-DAR4: trastuzumab vedotin ADC with DAR4, comparator in Table 5 [reference compound]	0.08	–	–	–	–	–	–	–	–	–	0.055	–	–	–	–	–	–	–	–	–
